From PubChem BioAssay
An excerpt weighted towards active compounds, which were near 2.5% of everything screened.
miR-21 reporter: miR-21 reporter, rising signal. HeLa miR-21 FLuc reporter, luciferase, 48 h. Potency, µM (titrated, usually from 38.3 µM), without a hit: at the top dose reporter change, positive = more light. 340,000 tested, under 10 active. AID 2288; active = well fitted rising curve with a large enough effect; inconclusive = small, poorly fitted or top-dose-only effect; inactive = no such curve, though single readings can be large or run the other way;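 also: % of control where 0% means no effect; miR-21 action dims this reporter so a rising signal means less miR-21 action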
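HeLa miR-21-FLuc reporter line, endogenous miR-21; 2000 cells/well in DMEM/10% FBS; compound titration up to ~40uM final, 48 h, 37 degree Celsius; luciferase detection reagent, 15 min lysis, CCD luminescence.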
TrxR1 substrate: substrates of rat thioredoxin reductase 1; O89049; purified TrxR1 substrate turnover, NADPH consumption readout; Potency, µM (series often up to 114 µM), inactives show top-dose activity change, negative = substrate turnover; 390,000 compounds, 0.01% hits; note: potency is the fitted concentration of half-maximal effect; % is set by controls: 0 for no effect and ±100 for the full control effect; nearly all actives have a fitted effect of over 50% in size
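Rat TrxR1, dispensed at 90 nM, was prereduced with 400 uM NADPH (final) for 5 min at ~22 deg C, then incubated with compound 15 min before 400 uM selenite. A first-read NADPH fluorescence drop versus no-compound background flagged substrates.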
rTrxR1 inhibitor: inhibitors of rat thioredoxin reductase 1 | 390,000 compounds, 1% hits | Potency, µM (series often up to 114 µM), for the others: top-dose activity change, negative = inhibition, actives largely listed as inhibitors | AID 588453 | recombinant rTrxR1, NADPH fluorescence consumption, selenite substrate; note: potency is the fitted concentration of half-maximal effect; % is set by controls: 0 for no effect and ±100 for the full control effect; nearly all actives have a fitted effect of over 65% in size
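Rat TrxR1 (90 nM in the dispensed reagent) was pre-reduced with 400 uM NADPH for 5 min at room temperature, then incubated with compound for 15 min. After 400 uM selenite was added, NADPH fluorescence (Ex 340/Em 450 nm) was followed for 8 min.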
ClpP mod: qHTS Assay for Activators of ClpP. ATP-dependent Clp protease proteolytic subunit (Bacillus subtilis (strain 168)), P80244. Potency, µM (titrated, usually from 57.5 µM), for the others: at the top dose activity change, negative = active. 340,000 compounds, 1.9% hits. purified B. subtilis ClpP, FRET peptide cleavage, 20 min. AID 651965, 2013; active = well fitted falling curve with a large enough effect; inconclusive = small, poorly fitted or top-dose-only effect; inactive = no such curve, though single readings can be large or run the other way; note: potency is the fitted concentration of half-maximal effect; the source files actives as falling curves though it sought activators and does not explain the sign; nearly all actives have a fitted effect of over 65% in size
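FRET quenching reversal measured ClpP activation: 10 microg/mL B. subtilis ClpP at pH 8 with the FRET-FV decapeptide, read at 430 nm after 320 nm excitation. The 20-min minus 0-min signal was scaled between DMSO/no-enzyme wells and ADEP (5.8 microM final).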
Apoferritin bind: binds horse apoferritin like a general anesthetic. 350,000 compounds, 0.074% hits. apoferritin/1-aminoanthracene competitive binding, fluorescence. Potency, µM (titrated, usually from 77.5 µM), for the others: top-dose activity change, negative = displacement, hits mostly inhibitors; note: potency is the fitted concentration of half-maximal effect; % is set by controls: 0 for no effect and ±100 for the full control effect; nearly all actives have a fitted effect of over 20% in size
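Apoferritin-based anesthetic binding model; compound displacement of fluorescent 1-AMA measured as endpoint fluorescence after 10 minutes at room temperature, scaled to free-ligand and complex controls.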
ClpP validation: validation of B. subtilis ClpP protease hits (inhibitors). AID 743245. shares compounds with ClpP mod. Potency, µM (doses to about 57.5 µM), for the others: top-dose activity change, negative = inhibition, hits mostly inhibitors. 470 compounds, 40% hits. purified B. subtilis ClpP, FRET-FV substrate cleavage, 20 min; note: potency is the fitted concentration of half-maximal effect; % is set by controls: 0 for no effect and ±100 for the full control effect; nearly all actives have a fitted effect of over 70% in size
* hit, by the source's call; [ ] = dose if it differs, or a comment. Unless noted, calls come from the whole dose curve; as a rule, active = well fitted curve in the direction sought with a large enough effect; inconclusive = small, poorly fitted or top-dose-only effect, or another doubt; inactive = no such curve, though single readings can be large; an effect the other way counts as inactive or inconclusive.

By UniProt entry, the sequences of proteins in these tests, tags left out.
ATP-dependent Clp protease proteolytic subunit (Bacillus subtilis (strain 168)), P80244, UniProt P80244, whole entry, looked up: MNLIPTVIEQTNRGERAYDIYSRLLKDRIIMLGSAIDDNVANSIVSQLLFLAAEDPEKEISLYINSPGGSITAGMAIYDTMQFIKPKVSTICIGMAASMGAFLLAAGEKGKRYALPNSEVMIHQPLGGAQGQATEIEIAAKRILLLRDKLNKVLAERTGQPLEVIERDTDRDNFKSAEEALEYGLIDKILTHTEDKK

Results for CCOC(=O)c1oc2ccccc2c1NC(=O)COc1cccc(OC)c1 ?
miR-21 reporter: 1%; TrxR1 substrate: 38%; rTrxR1 inhibitor: 30%; ClpP mod: 48%; Apoferritin bind: -6%; ClpP validation: 19µM*

Results for COc1ccccc1NC(=O)c1oc2ccccc2c1NC(=O)c1ccco1 ?
miR-21 reporter: -1%; TrxR1 substrate: 51%; rTrxR1 inhibitor: -12%; ClpP mod: 148%; Apoferritin bind: -6%; ClpP validation: 22µM*

How did CCOc1ccc(CC(=O)Nc2c(C(=O)Nc3ccc(OC)cc3OC)oc3ccccc23)cc1 do in these assays?
miR-21 reporter: 0%; TrxR1 substrate: 21%; rTrxR1 inhibitor: 13%; ClpP mod: 31%; Apoferritin bind: 2%; ClpP validation: 19µM*

What do the screens show for `O=C(COc1ccccc1F)Nc1c(C(=O)Nc2cccc(F)c2)oc2ccccc12`?
miR-21 reporter: -19%; TrxR1 substrate: 15%; rTrxR1 inhibitor: 6%; ClpP mod: 79%; Apoferritin bind: -17%; ClpP validation: inconclusive

What do the screens show for `CCOc1ccc(NC(=O)c2oc3ccccc3c2NC(=O)COc2cccc(OC)c2)cc1`?
miR-21 reporter: -2%; TrxR1 substrate: 13%; rTrxR1 inhibitor: 12%; ClpP mod: 33%; Apoferritin bind: -6%

Results for Cc1ccccc1C(=O)Nc1c(C(=O)Nc2cccc(F)c2)oc2ccccc12 ?
miR-21 reporter: 4%; TrxR1 substrate: 1%; rTrxR1 inhibitor: 12%; ClpP mod: inconclusive; Apoferritin bind: -2%

What do the screens show for `Cc1ccccc1NC(=O)CN(c1ccc(Cl)cc1Cl)S(=O)(=O)c1ccccc1`?
miR-21 reporter: 11%; TrxR1 substrate: 6%; rTrxR1 inhibitor: 28%; ClpP mod: -2%; Apoferritin bind: 5%

How did COc1ccc(C2/C=C\CN(C(=O)c3ccccc3)C(C)C(=O)N2Cc2ccc(F)cc2)cc1 (stereo not drawn) do in these assays?
TrxR1 substrate: -7%; rTrxR1 inhibitor: 13%[57.1 µM]; Apoferritin bind: 6%

What do the screens show for `COc1ccc(-c2cc(C(=O)NCCc3ccccc3)c3c(-c4ccccc4)[nH]nc3n2)cc1OC`?
miR-21 reporter: -29%; TrxR1 substrate: 71%; rTrxR1 inhibitor: 3%; ClpP mod: 395%; Apoferritin bind: -26%; ClpP validation: 24µM*

How did O=C(Nc1nc2nc(-c3ccccc3)cc(-c3ccccc3)n2n1)c1ccco1 do in these assays?
miR-21 reporter: 3%; TrxR1 substrate: 132%; rTrxR1 inhibitor: 56%; ClpP mod: 7.9µM*; Apoferritin bind: -11%; ClpP validation: 12µM*

Results for Oc1ccc(/C=C/c2ccc(/C=C/c3ccc(O)cc3)c(Br)c2)cc1 ?
TrxR1 substrate: 75%[57.1 µM]; rTrxR1 inhibitor: 22µM*; ClpP validation: -19%

How did CCCNC(=O)c1ccc(C2SCC(=O)N2Cc2ccccc2)cc1 (stereo not drawn) do in these assays?
miR-21 reporter: -2%; TrxR1 substrate: 2%; rTrxR1 inhibitor: -22%; ClpP mod: 2.5µM*; Apoferritin bind: -10%; ClpP validation: -1%

Results for Cc1cccc(NC(=O)c2ccccc2C(=O)Nc2cccc(C)c2)c1 ?
TrxR1 substrate: 12%[57.1 µM]; rTrxR1 inhibitor: 18%[57.1 µM]; ClpP mod: 168%; ClpP validation: -2%

Results for Cc1ccccc1C(=O)Nc1cccc(NC(=O)c2ccc(-c3ccc(Br)cc3)o2)c1 ?
miR-21 reporter: -5%; TrxR1 substrate: 26%; rTrxR1 inhibitor: -18%; ClpP mod: 139%; Apoferritin bind: -1%; ClpP validation: inconclusive

How did CN1CCN(c2ccc(NC(=O)c3ccc(-c4ccc(Br)cc4)o3)cc2)CC1 do in these assays?
miR-21 reporter: inconclusive; TrxR1 substrate: -8%[57.1 µM]; rTrxR1 inhibitor: -9%[57.1 µM]; Apoferritin bind: inconclusive

How did COc1cc(NC(=O)CN2CCN(S(=O)(=O)c3ccc(C(C)C)cc3)CC2)cc(OC)c1 do in these assays?
miR-21 reporter: 11%; TrxR1 substrate: -8%; rTrxR1 inhibitor: -2%[57.1 µM]; ClpP mod: -2%; Apoferritin bind: 35%

How did COc1ccc(S(=O)(=O)N2CCN(CC(=O)Nc3cc(OC)cc(OC)c3)CC2)cc1 do in these assays?
miR-21 reporter: 2%; TrxR1 substrate: -11%; rTrxR1 inhibitor: inconclusive; ClpP mod: 66%; Apoferritin bind: -14%; ClpP validation: 1%

How did O=S(=O)(c1ccccc1)c1nc(-c2ccccc2)oc1N1CCN(c2cccc(Cl)c2)CC1 do in these assays?
miR-21 reporter: 6%; TrxR1 substrate: 9%; rTrxR1 inhibitor: 33%; ClpP mod: -22%; Apoferritin bind: 2%

What do the screens show for `CCN(c1ccccc1)S(=O)(=O)c1ccc(OC)c(NC(=O)c2cc(F)c(F)c(F)c2F)c1`?
TrxR1 substrate: 4%[11.4 µM]; rTrxR1 inhibitor: -6%; ClpP mod: 41%; ClpP validation: inconclusive

Results for COc1ccc(NS(=O)(=O)c2ccc(C)c(C(=O)NNC(=O)c3ccccc3O)c2)cc1 ?
TrxR1 substrate: 0%; rTrxR1 inhibitor: 4%; ClpP mod: 72%; ClpP validation: 0%

Compounds above with bromine:
Results for Oc1ccc(/C=C/c2ccc(/C=C/c3ccc(O)cc3)c(Br)c2)cc1 ?
TrxR1 substrate: 75%[57.1 µM]; rTrxR1 inhibitor: 22µM*; ClpP validation: -19%

Results for Cc1ccccc1C(=O)Nc1cccc(NC(=O)c2ccc(-c3ccc(Br)cc3)o2)c1 ?
miR-21 reporter: -5%; TrxR1 substrate: 26%; rTrxR1 inhibitor: -18%; ClpP mod: 139%; Apoferritin bind: -1%; ClpP validation: inconclusive

How did CN1CCN(c2ccc(NC(=O)c3ccc(-c4ccc(Br)cc4)o3)cc2)CC1 do in these assays?
miR-21 reporter: inconclusive; TrxR1 substrate: -8%[57.1 µM]; rTrxR1 inhibitor: -9%[57.1 µM]; Apoferritin bind: inconclusive

(more compounds)
What do the screens show for `COc1ccc(NS(=O)(=O)c2ccc(C)c(C(=O)O)c2)cc1`?
miR-21 reporter: 2%; TrxR1 substrate: 7%; rTrxR1 inhibitor: 7%; ClpP mod: -3%; Apoferritin bind: -9%

Results for CN(c1ccccc1C(=O)NC1CC2CCC1C2)S(=O)(=O)c1ccccc1 (stereo not drawn) ?
miR-21 reporter: 3%; TrxR1 substrate: -7%; rTrxR1 inhibitor: 2%; ClpP mod: 7.9µM*; Apoferritin bind: -5%; ClpP validation: -3%

What do the screens show for `CN(c1ccccc1C(=O)NC1CCCCC1)S(=O)(=O)c1ccccc1`?
miR-21 reporter: 3%; TrxR1 substrate: 7%[11.4 µM]; rTrxR1 inhibitor: 25%[11.4 µM]; ClpP mod: 3%; Apoferritin bind: -6%

Results for CC(=O)Nc1cccc(NC(=O)C(=O)NCCc2csc3nc(-c4ccccc4F)nn23)c1 ?
miR-21 reporter: -13%; TrxR1 substrate: -7%[57.1 µM]; rTrxR1 inhibitor: -5%[57.1 µM]; ClpP mod: -3%; Apoferritin bind: -13%

How did CC1CN(C(=O)Nc2ccc3c(c2)OCCO3)CC(C)O1 (stereo not drawn) do in these assays?
miR-21 reporter: -46%; TrxR1 substrate: 5%[57.1 µM]; rTrxR1 inhibitor: 10%[57.1 µM]; ClpP mod: 3.5µM*; Apoferritin bind: -6%; ClpP validation: -1%

What do the screens show for `O=C(Cc1ccc(NC(=O)N2CCSc3ncccc32)cc1)NCCc1ccccc1`?
miR-21 reporter: 1%; TrxR1 substrate: -1%; rTrxR1 inhibitor: 9%; ClpP mod: inconclusive; Apoferritin bind: -15%
